Results taken from PMC3441713, “Citrullination of Histone H3 Interferes with HP1-Mediated Transcriptional Repression” (PLoS Genetics, 2012).

By UniProt entry, the sequences of proteins in these tests, tags left out.
UniProt P45973, whole entry: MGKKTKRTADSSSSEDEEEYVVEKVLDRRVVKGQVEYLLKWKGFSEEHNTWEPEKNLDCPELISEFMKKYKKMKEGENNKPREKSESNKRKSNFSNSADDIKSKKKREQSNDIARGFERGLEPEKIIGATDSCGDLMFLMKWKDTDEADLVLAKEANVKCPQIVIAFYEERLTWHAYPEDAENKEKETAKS

How the values were obtained:
[1] = target: T1, GST-HP1α (Homo sapiens, UniProt P45973); assay: Overlay assay: competition of H3 peptides with cellular sites for GST-HP1α binding; conditions: 1 µg peptide; fixed permeabilized MCF7 cells
[2] = target: T1, GST-HP1α; assay: Surface plasmon resonance of H3 peptides on immobilized GST-HP1α; assay type: binding; conditions: SPR, from Kd
[3] = target: T1, GST-HP1α; assay: Dot blot: binding of recombinant GST-HP1α to spotted H3 peptides; conditions: 1, 0.2 and 0.04 µg peptide on membrane, anti-GST antibodies
[4] = target: T1, GST-HP1α; assay: SPR; GST-HP1α covalently coupled to a CM5 chip (3500, 6500 and 15000 RU), GST reference surface; peptides injected; Biacore 2000, 25°C, PBS; steady-state fit

“H3cit8K9: peptide ARTKQTARKSTGGKAPRC with cit8 modification (citrulline at 8 (in place of R8))” was tested, and the “competition with cellular sites for GST-HP1α binding” value (from here on “competition with cellular sites”) [1] was “failed to compete”.

With “ARTKQTA (cit)(Kme3)STGGKAPRC [H3cit8K9me3]” the “decrease in the affinity of HP1α for H3cit8K9me3 compared to H3R8K9me3” value [2] was “more than 200 fold”, the “effect of citrullination of H3R8 on HP1α binding compared with its methylation” value [2] was 10 fold and the “competition with cellular sites” value [1] was “did not”. The “binding of GST-HP1α to spotted H3 peptide” value ([3]; listed as H3Cit8K9me3) was “does not bind” and the “binding of GST-HP1α to spotted H3 peptide” value ([3]; listed as cit8K9me3) was “but not a peptide with a double cit8K9me3 modification”.

ARTKQTARKSTGGKAPRC [H3R8K9] was tested, and the “competition with cellular sites” value [1] was “failed to compete”.

Substance histone H3 peptide … with cit8K9me3 has a Kd [4] of 313 µM.
